Laboratory results as given in US6426231B1 (priority 1998, dated 2002).

Target: αHL-M113N (Staphylococcus aureus, UniProt P09616, G156S/I168L/K34A/M139N/N165Q/V150L)
Conditions: −40 mV, 1M NaCl, 10 mM Na phosphate, pH 7.5

## heptakis-6-sulfato-β-cyclodextrin
  g (conductance): 40 ± 1 pS
